Experiments:
PDE 10a = PDE 10a (Homo sapiens, UniProt Q9Y233); assay: In vitro enzyme inhibition assay (3H-cAMP scintillation proximity assay); settings: full-length recombinant PDE 10a, Sf9 cell lysate
Protocol: Full-length recombinant PDE 10a was expressed in Sf9 insect cells (Invitrogen, Carlsbad, Calif., U.S.A.) using the Bac-to-Bac™ Baculovirus Expression System (Life Technologies, Gaithersburg, Md., U.S.A.). 48 hours post infection, cells were harvested and resuspended in 20 mL (per 1 L culture) Lysis Buffer (50 mM Tris-HCl, pH 7.4, 50 mM NaCl, 1 mM MgCl2, 1.5 mM EDTA, 10% glycerol plus 20 μL Protease Inhibitor Cocktail Set III [CalBiochem, La Jolla, Calif., U.S.A.]). Cells were sonicated at 4° C. for 1 minute and centrifuged at 10,000 RPM for 30 minutes at 4° C. Supernatant was removed and stored at −20° C. for activity assays.
The test compounds were serially diluted in DMSO using two-fold dilutions to stock concentrations ranging typically from 200 μM to 1.6 μM (final concentrations in the assay range from 4 μM to 0.032 μM). 96-well assay isoplates (Wallac Inc., Atlanta, Ga., U.S.A.) were loaded with 50 μL dilution buffer per well (dilution buffer: 50 mM Tris/HCl pH 7.5, 8.3 mM MgCl2, 1.7 mM EDTA, 0.2% BSA). 2 μL of the serially diluted individual test compounds were added to individual wells,m followed by 25 μL of a 1:25,000 dilution of crude recombinant PDE 10a-containing Sf9 cell lysate (diluted in dilution buffer described above). The enzymatic assay was initiated by addition of 25 μL (0.025 μCi) ^3H cyclic AMP tracer [5′,8-^3H] adenosine 3′,5′-cyclic phosphate (Amersham Pharmacia Biotech., Piscataway, N.J., U.S.A.) that was diluted 1:1000 in assay buffer (assay buffer: 50 mM Tris/HCl pH 7.5, 8.3 mM MgCl2, 1.7 mM EDTA). Reactions were incubated at room temperature for 60 minutes and terminated by addition of 25 μL of 18 mg/mL Yttrium Scintillation Proximity Beads (Amersham Pharmacia Biotech., Piscataway, N.J., U.S.A.). Plates were sealed and incubated at room temperature for 60 minutes. Plates were read for 30 seconds/well using a Microbeta counter (Wallac Inc., Atlanta, Ga., U.S.A.). The IC50 values were determined by plotting compound concentration versus percent inhibition.

Chains of the proteins cited; added tags and fusions are not shown. Residues count along the entry.
UniProt Q9Y233, 1-779 isoform 1: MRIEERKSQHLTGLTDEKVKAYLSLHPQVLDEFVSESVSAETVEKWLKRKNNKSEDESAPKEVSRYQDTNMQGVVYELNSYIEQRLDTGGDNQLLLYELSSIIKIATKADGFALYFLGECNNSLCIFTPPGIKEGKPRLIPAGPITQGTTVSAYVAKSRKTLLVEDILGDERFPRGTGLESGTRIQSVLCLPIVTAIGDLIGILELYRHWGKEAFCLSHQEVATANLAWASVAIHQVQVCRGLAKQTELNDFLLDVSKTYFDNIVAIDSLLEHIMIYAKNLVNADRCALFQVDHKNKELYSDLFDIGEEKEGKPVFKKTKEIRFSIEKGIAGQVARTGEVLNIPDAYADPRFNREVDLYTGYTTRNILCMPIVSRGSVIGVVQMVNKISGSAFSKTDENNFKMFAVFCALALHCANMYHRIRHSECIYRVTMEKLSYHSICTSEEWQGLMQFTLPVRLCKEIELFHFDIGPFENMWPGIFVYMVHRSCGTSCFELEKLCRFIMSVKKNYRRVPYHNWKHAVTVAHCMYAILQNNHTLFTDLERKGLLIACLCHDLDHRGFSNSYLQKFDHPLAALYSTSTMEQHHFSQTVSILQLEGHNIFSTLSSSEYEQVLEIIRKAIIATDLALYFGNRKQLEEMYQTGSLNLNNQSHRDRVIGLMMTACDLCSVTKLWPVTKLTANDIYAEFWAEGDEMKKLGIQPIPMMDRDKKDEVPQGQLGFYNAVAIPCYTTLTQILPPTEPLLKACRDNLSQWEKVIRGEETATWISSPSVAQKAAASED

[1] = tested on: MDA-MB-231 human breast carcinoma cells; assay: In vitro proliferation inhibition assay (LDH activity, 72 hours); settings: MDA-MB-231 cells
Protocol: MDA-MB-231 human breast carcinoma cells (ATCC # HTB26) were cultured in standard growth medium (DMEM), supplemented with 10% heat-inactivated FBS, 10 mM HEPES, 2 mM glutamine, 100 U/mL penicillin, and 100 μg/mL streptomycin) at 37° C. in 5% CO2 (vol/vol) in a humidified incubator. Cells were plated at a density of 3000 cells per well in 100 μL growth medium in a 96 well culture dish. 24 hours after plating, LDH activity was determined using the Cytotox 96 Non-radioactive Cytotoxicity Kit (Promega, Madison, Wis., U.S.A.) to yield T0h LDH values. Briefly, cells were lysed with the addition of 200 μL of Lysis Buffer (included in the Promega Kit) and lysates were further diluted 1:50 in Lysis Buffer. 50 μL of diluted cell lysate were transferred to a fresh 96 well culture plate. The assay was initiated with the addition of 50 μL of substrate per well. Color development was allowed to proceed for 10-15 minutes. The assay was terminated with the addition of 50 μL of Stop Solution (included in Promega kit). Optical densities were determined spectrophotometrically at 490 nm in a 96 well plate reader (SpectraMax 250, Molecular Devices, Sunnyvale, Calif., U.S.A.).
Test compounds were dissolved in 100% DMSO to prepare 10 mM stocks. Stocks were further diluted 1:250 in growth medium to yield working stocks of 40 μM test compound in 0.4% DMSO. Test compounds were serially diluted in growth medium containing 0.4% DMSO to maintain constant DMSO concentrations for all wells. 50 μL of fresh growth medium and 50 μL of diluted test compound were added to each culture well to give a final volume of 200 μL. The cells with and without individual test compounds were incubated for 72 hours at which time LDH activity was measured to yield T72h values. Optionally, the IC50 values can be determined with a least squares analysis program using compound concentration versus percent inhibition. % Inhibition=[1−(T72h test−T0h)/(T72h ctrl−T0h)]×100 wherein • T72h test=LDH activity at 72 hours in the presence of test compound, • T72h ctrl=LDH activity at 72 hours in the absence of test compound and • T0h=LDH activity at Time Zero

| SMILES | IC50 (PDE 10a; Examples of part a (Table 1a)) | IC50 (PDE 10a; Examples of part b (Table 1b)) | % inhibition at a concentration of 10 μM ([1]; Examples of part a (Table 2a)) | % inhibition at a concentration of 10 μM ([1]; Examples of part b (Table 2b)) |
| --- | --- | --- | --- | --- |
| CCOC(=O)c1c(-c2cc(F)cc(F)c2)c(C)n2c1-c1cc(OC)c(OC)cc1CC2 | 490 nM |  | 94% |  |
| CCOC(=O)c1c(-c2cc(OC)c(OC)c(OC)c2)c(C)n2c1-c1c(cccc1OC)CC2 |  | 32 nM |  | 86% |
| COC(=O)c1c(-c2cc(C)c(O)c(C)c2)c(C)n2c1-c1ccc(OC)c(OC)c1CC2 |  | 34 nM |  | 87% |
| CCOC(=O)c1c(-c2ccc(F)cc2)c(C)n2c1-c1cc(OCC)c(OC)cc1CC2 |  | 270 nM |  | 58% |

Continued, in another order:

| IC50 (PDE 10a; Examples of part a (Table 1a)) | IC50 (PDE 10a; Examples of part b (Table 1b)) | SMILES | % inhibition at a concentration of 10 μM ([1]; Examples of part a (Table 2a)) | % inhibition at a concentration of 10 μM ([1]; Examples of part b (Table 2b)) |
| --- | --- | --- | --- | --- |
| 81 nM |  | CCOC(=O)c1c(-c2ccc(O)c(Cl)c2)c(C)n2c1-c1cc(OC)c(OC)cc1CC2 | 96% |  |
| 62 nM |  | COC(=O)c1c(-c2ccc(O)cc2)c(C)n2c1-c1cc(OC)c(OC)cc1CC2 | 92% |  |
| 46 nM |  | CCOC(=O)c1c(-c2ccc(O)c(C)c2)c(C)n2c1-c1cc(OC)c(OC)cc1CC2 | 96% |  |
| 96 nM |  | CCOC(=O)c1c(-c2ccc(O)cc2OC)c(C)n2c1-c1cc(OC)c(OC)cc1CC2 | 88% |  |
| 56 nM |  | COC(=O)c1c(-c2ccc(O)c(Cl)c2)c(C)n2c1-c1cc(OC)c(OC)cc1CC2 | 97% |  |

— patent US6930114B2, “Pyrrolo (2.1a)dihydroisoquinolines and their use as phosphodiesterase 10a inhibitors” (Bayer Pharmaceuticals Corporation, priority 2000, dated 2005)
